The target in experiment [1] is hMC3-R (Homo sapiens, UniProt P41968). Briefly: Radioligand binding assay, [125I]-NDP-α-MSH competition, hMC3-R. The following applies: read-out: Ki hMC3-R, CHO-K1 cell membranes.
The target in experiment [2] is hMC5-R (Homo sapiens, UniProt P33032). Briefly: Radioligand binding assay, [125I]-NDP-α-MSH competition, hMC5-R. Particulars: read-out: Ki hMC5-R, CHO-K1 cell membranes.
Experiment [3] addresses hMC4-R (Homo sapiens, UniProt P32245). Briefly: Radioligand binding assay, [125I]-NDP-α-MSH competition, hMC4-R. The following applies: read-out: Ki hMC4-R, CHO-K1 cell membranes.

Amino acid sequences for entries named in this document (tags omitted).
UniProt P41968, whole entry: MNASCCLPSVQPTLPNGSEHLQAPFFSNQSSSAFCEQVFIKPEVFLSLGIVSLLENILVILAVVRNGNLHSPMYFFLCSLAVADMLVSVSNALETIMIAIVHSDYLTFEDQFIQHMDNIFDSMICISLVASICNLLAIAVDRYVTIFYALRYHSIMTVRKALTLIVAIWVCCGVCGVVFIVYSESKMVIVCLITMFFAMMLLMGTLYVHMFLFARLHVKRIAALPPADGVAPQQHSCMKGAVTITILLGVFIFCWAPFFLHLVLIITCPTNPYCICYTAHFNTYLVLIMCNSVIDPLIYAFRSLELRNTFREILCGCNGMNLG
UniProt P33032, whole entry: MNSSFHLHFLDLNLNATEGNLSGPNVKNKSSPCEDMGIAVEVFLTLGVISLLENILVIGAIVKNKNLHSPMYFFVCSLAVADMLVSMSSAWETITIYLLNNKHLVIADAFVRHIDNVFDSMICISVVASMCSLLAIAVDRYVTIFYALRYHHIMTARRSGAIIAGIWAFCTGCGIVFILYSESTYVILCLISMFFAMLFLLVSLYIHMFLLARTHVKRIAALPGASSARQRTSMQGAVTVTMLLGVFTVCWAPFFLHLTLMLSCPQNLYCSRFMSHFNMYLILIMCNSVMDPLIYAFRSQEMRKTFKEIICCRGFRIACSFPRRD
UniProt P32245, whole entry: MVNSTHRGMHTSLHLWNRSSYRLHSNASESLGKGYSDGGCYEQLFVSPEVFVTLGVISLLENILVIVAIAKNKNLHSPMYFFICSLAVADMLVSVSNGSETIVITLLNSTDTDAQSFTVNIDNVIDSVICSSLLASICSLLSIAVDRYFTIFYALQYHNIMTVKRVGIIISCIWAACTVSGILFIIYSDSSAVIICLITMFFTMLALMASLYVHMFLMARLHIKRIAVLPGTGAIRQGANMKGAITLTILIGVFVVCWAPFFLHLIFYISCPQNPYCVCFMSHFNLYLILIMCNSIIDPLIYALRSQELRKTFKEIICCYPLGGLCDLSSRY

Broadly, the Ki is the dissociation constant of the complex between target and ligand, obtained from inhibition or displacement. With `CCCC[C@H](NC(C)=O)C(=O)N[C@H]1CC(=O)NCCCC[C@@H](C(N)=O)NC(=O)CCCNC(=O)[C@H](Cc2c[nH]c3ccccc23)NC(=O)[C@H](CCCNC(=N)N)NC(=O)[C@@H](Cc2ccccc2)NC(=O)[C@H](Cc2cnc[nH]2)NC1=O`, the Ki in experiment [1] amounted to 9.89 nM; in experiment [2], 16.3 nM; in experiment [3], 1.04 nM.
